Data taken from US4238491A (priority 1977, dated 1980).
Like-named read-outs stand apart in the source and are kept apart here.

Legend:
in vivo [1] = settings: rat, po
in vivo [2] = settings: mouse
rats [3] = tested on: rats; parameters: species or system rat (SD (SPF)); settings: rat, in vivo, po
Description: All the rats were observed daily and general symptoms noted. Weight was measured daily, average food-intake once every three days, and average water-intake once every two days.

rats [4] = tested on: rats
rats [5] = settings: 30 days
mouse = settings: oral
rats [6] = tested on: rats; remark: listed apart in the source
Description: Rats were sacrificed under anesthesia with ether. After observation of gross appearance of all the organs, extraction and weighing were made on spleen, lung, liver, adrenal, heart, thymus, kidney, testicles, hypophysis and thyroid. In addition to the above organs, femoral bone marrow, lymph node, stomach, intestine, pancreas, urinary bladder, prostate and central nervous system were removed and fixed in 10% formaline solution.

SMILES: COC(=O)[C@H]1[C@H]2C[C@@H]3c4[nH]c5cc(OC)ccc5c4CCN3C[C@H]2C[C@@H](O)[C@@H]1OC [MR, methylreserpate]
- LD50 (in vivo [1]): 479 mg/kg
- LD50 (in vivo [2]; iv): 48 mg/kg
- LD50 (in vivo [2]; po): 210 mg/kg
- lethal dose (rats [3]): 200 mg/kg
- R.B.C. (rats [4]; 25.0 mg/kg, day 10): 774±16.4 x10^4 /mm^3
- R.B.C. (rats [4]; 25.0 mg/kg, day 20): 872±22.0 x10^4 /mm^3
- R.B.C. (rats [4]; 25.0 mg/kg, day 30): 913±8.7 x10^4 /mm^3
- R.B.C. (rats [4]; 50.0 mg/kg, day 10): 771±10.8 x10^4 /mm^3
- R.B.C. (rats [4]; 50.0 mg/kg, day 20): 864±19.8 x10^4 /mm^3
- R.B.C. (rats [4]; 100.0 mg/kg, day 10): 805±17.3 x10^4 /mm^3
- R.B.C. (rats [4]; 100.0 mg/kg, day 20, significant vs control): 908±17.2 x10^4 /mm^3
- R.B.C. (rats [4]; 200.0 mg/kg, day 10, 4 rats, significant vs control): 877±69.2 x10^4 /mm^3
- GPT (rats [5]; 25.0 mg/kg): 36.6±1.55 K.U.
- GPT (rats [5]; 50.0 mg/kg): 38.8±2.21 K.U.
- GPT (rats [5]; 100.0 mg/kg): 32.7±1.67 K.U.
- LD50 as multiple of clinical dosage of RCN (mouse): about 10,000 times
- Absolute weight Adrenal (rats [6]; 25.0 mg/kg): 27.86 ± 1.69 mg
- Absolute weight Heart (rats [6]; 25.0 mg/kg): 1.26 ± 0.03 g
- Absolute weight Testis (rats [6]; 25.0 mg/kg): 1.71 ± 0.10 g
- Absolute weight Adrenal (rats [6]; 50.0 mg/kg): 33.17 ± 2.22 mg
- Absolute weight Heart (rats [6]; 50.0 mg/kg): 1.34 ± 0.07 g
- Absolute weight Adrenal (rats [6]; 100.0 mg/kg, P<0.01): 34.92 ± 1.38 mg
